Laboratory results taken from PubChem BioAssay AID1230 (PCMD, 2008).
The entries are a selection whose mix differs from that of the whole data set. Some salts or complexes appear as unconnected parts, following the source record. Active and inactive are the calls of the source.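 The calls were made as follows: active = signal enhancement of 30% or more; inactive = the rest.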

Chains of the proteins cited; added tags and fusions are not shown.
UniProt Q00987, whole entry: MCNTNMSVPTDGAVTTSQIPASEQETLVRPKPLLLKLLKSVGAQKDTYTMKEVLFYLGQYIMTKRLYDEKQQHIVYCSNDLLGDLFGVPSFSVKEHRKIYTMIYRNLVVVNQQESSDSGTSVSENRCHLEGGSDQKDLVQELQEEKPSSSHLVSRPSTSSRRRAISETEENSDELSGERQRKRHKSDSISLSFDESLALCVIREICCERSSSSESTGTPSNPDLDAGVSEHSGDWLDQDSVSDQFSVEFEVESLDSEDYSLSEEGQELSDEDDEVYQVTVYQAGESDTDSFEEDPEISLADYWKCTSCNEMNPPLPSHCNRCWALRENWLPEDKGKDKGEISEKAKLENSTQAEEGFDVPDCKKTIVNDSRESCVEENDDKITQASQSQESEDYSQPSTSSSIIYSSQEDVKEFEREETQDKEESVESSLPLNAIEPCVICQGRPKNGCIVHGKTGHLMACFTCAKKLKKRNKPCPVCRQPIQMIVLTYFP

molecular target: E3 ubiquitin-protein ligase Mdm2 (Homo sapiens) (UniProt Q00987); experiment: increase of MDM2 autoubiquitination reporter luminescence – cell-based, 1536-well, MDM2 E3 ligase inhibitor project, primary screen (AID 1230); details: cell-based MDM2 ubiquitination luciferase reporter, 2 h; at 5 µM; active compounds read high; 0 = plate control, 100 = twice control, blank-subtracted;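 also: luminescence tracks abundance of the self-degrading MDM2-luciferase fusion protein; higher signal means inhibition of MDM2 E3 ligase activity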
Procedure, shortened: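 Material: Stable MDM2–luciferase fusion reporter cells | Amount: 2000 cells seeded into each well | Dosing: One concentration, 5 µM, with 0.2% DMSO | Incubation: 4 h cell settling then 2 h compound exposure, 37 °C | Measured by: Luciferase luminescence | Read-out basis: % enhancement relative to plate controls after blank subtraction | Benchmarks: Control and blank well means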

Structure (SMILES)	signal enhancement
CC(C)(C)c1ccc(OP(C)(=O)O)cc1	inactive: -15.3%
COc1ccccc1OP(C)(=O)Nc1ccccc1Br (stereo not given)	inactive: -1.98%
CP(=O)(Nc1ccc(Cl)cc1)Oc1ccc(F)cc1 (stereo not given)	inactive: 21%
CN(C)C(=O)c1c([N+](=O)[O-])cc([N+](=O)[O-])cc1[N+](=O)[O-]	inactive: 9.58%
CCN(CC)CC(O)COC(=O)C(O)(c1ccccc1)C1CCCCC1 (stereo not given)	inactive: -19.8%
COc1ccc(OP(C)(=O)Nc2ccc(Br)cc2)cc1 (stereo not given)	inactive: -6.97%
O=C(OCCCN1CCCC1)C(O)(c1ccccc1)C1CCCCC1 (stereo not given)	inactive: -8.98%
CP(=O)(Oc1ccccc1)N1CCOC1=O (stereo not given)	inactive: 8.03%
CCc1ccc(OP(C)(=O)Nc2cccnc2)cc1 (stereo not given)	inactive: -5.46%
CCOC(=O)c1ccc(NP(C)(=O)Oc2ccc(Cl)cc2)cc1 (stereo not given)	inactive: 0.43%
CP(=O)(OC12CC3CC(CC(C3)C1)C2)OC12CC3CC(CC(C3)C1)C2	inactive: -1.56%
Cc1nc2ccc3ccccc3c2o1.O=[N+]([O-])c1cc([N+](=O)[O-])c(O)c([N+](=O)[O-])c1	inactive: -16.1%
CP(=O)(OCCOc1ccccc1)OCCOc1ccccc1	inactive: -2.23%
CP(=O)(Nc1ccc(Cl)cc1Cl)Oc1ccccc1 (stereo not given)	inactive: 7.35%
Cc1cc(C)cc(OP(C)(=O)Nc2cccc(C(F)(F)F)c2)c1 (stereo not given)	inactive: 0.3%
COc1ccccc1OP(C)(=O)Nc1ccc(C)c(C)c1 (stereo not given)	inactive: -13.2%
COc1ccc(OP(C)(=O)Nc2ccccc2Br)cc1 (stereo not given)	inactive: -4.07%
O=[N+]([O-])c1cc([N+](=O)[O-])c(Nc2ccccn2)c([N+](=O)[O-])c1	inactive: 7.73%
Cc1c(NP(C)(=O)Oc2ccc(C(C)C)cc2)c(=O)n(-c2ccccc2)n1C (stereo not given)	inactive: -15.3%
CP(=O)(Nc1ccccn1)Oc1ccccc1 (stereo not given)	inactive: -7.65%
COc1ccccc1OP(C)(=O)Nc1ccc(C)cc1C (stereo not given)	inactive: -9.69%
CCc1ccc(OP(C)(=O)O)cc1	inactive: -21.8%
COc1ccccc1OP(C)(=O)Nc1ccc(Br)cc1 (stereo not given)	inactive: -4.12%
COc1ccc(OP(C)(=O)Nc2ccccn2)cc1 (stereo not given)	inactive: -13.9%
CN(C)CCOC(=O)C(O)(c1ccccc1)C1CCCC1 (stereo not given)	inactive: -12.9%
O=C(OC1CN2CCC1CC2)c1ccc([N+](=O)[O-])cc1 (stereo not given)	inactive: -6.7%
O=C(OCCN1CCN(CCOCc2ccccc2)CC1)C(O)(c1ccccc1)c1ccccc1	inactive: -6.6%

Structure (SMILES)	signal enhancement
COc1ccc2c(c1O)-c1c(O)c(OC)cc3c1[C@H](C2)[N+](C)(C)CC3.O=[N+]([O-])c1cc([N+](=O)[O-])c([O-])c([N+](=O)[O-])c1[O-]	inactive: -3.03%
CP(=O)(Nc1ccccc1F)Oc1ccccc1 (stereo not given)	inactive: -20.8%
CC(C)c1ccc(OP(C)(=O)Nc2ccc(SC(F)(F)F)cc2)cc1 (stereo not given)	inactive: 9.28%
CCN(CC)CCCOC(=O)C(O)(c1ccccc1)C1CCCCC1 (stereo not given)	inactive: -10.4%
CP(=O)(Nc1ccccc1)Oc1ccc(F)cc1 (stereo not given)	inactive: -19.5%
CCCCCOc1ccc(NP(C)(=O)Oc2ccc(Cl)cc2Cl)cc1 (stereo not given)	inactive: -19.3%
CCOC(=O)c1ccc(NP(C)(=O)Oc2ccc(F)cc2)cc1 (stereo not given)	inactive: -46.1%
COc1ccc(OP(C)(=O)Nc2ccc(SC(F)(F)F)cc2)cc1 (stereo not given)	inactive: -1.74%
O=[N+]([O-])c1ccc(OP2(=O)COCCO2)cc1 (stereo not given)	inactive: -13.8%
Cc1cc(-c2cccc3ccccc23)c(C)cn1.O=[N+]([O-])c1cc([N+](=O)[O-])c(O)c([N+](=O)[O-])c1	inactive: 2.68%
O=[N+]([O-])c1cc([N+](=O)[O-])c(NCC2CCS(=O)(=O)C2)c([N+](=O)[O-])c1 (stereo not given)	inactive: -5.45%
COc1ccc(OP(C)(=O)Nc2cccc(Br)c2)cc1 (stereo not given)	inactive: -5.57%
CN(C)CCOC(=O)C(O)(c1ccccc1)C1CCCCC1 (stereo not given)	inactive: -18.6%
COc1ccc(NP(C)(=O)Oc2ccccc2OC)cc1 (stereo not given)	inactive: -20.1%
CP(=O)(Nc1ccc2c(c1)OCCO2)Oc1ccccc1 (stereo not given)	inactive: -15.1%
Cc1ccccc1NP(C)(=O)Nc1ccccc1C	inactive: 9.56%
CP(=O)(Nc1ccc(SC(F)(F)F)cc1)Oc1ccc(F)cc1 (stereo not given)	inactive: -2.27%
CCOP(C)(=S)SCC(=O)NC(C)(CC)C(=O)O (stereo not given)	inactive: -0.1%
Cc1nc2ccc3ccccc3c2s1.O=[N+]([O-])c1cc([N+](=O)[O-])c(O)c([N+](=O)[O-])c1	inactive: 7.34%
O=[N+]([O-])c1cc([N+](=O)[O-])c(-n2nnc3ccccc32)c([N+](=O)[O-])c1	inactive: -7.58%
COc1ccccc1OP(C)(=O)Nc1c(C)cccc1C (stereo not given)	inactive: -12.9%
CN1CCCCC1COC(=O)C1(O)c2ccccc2CCc2ccccc21 (stereo not given)	inactive: 4.79%
CP(=O)(Nc1ccc(SC(F)(F)F)cc1)Oc1ccccc1 (stereo not given)	inactive: 0.38%
CCCOc1ccc(NP(C)(=O)Oc2ccc(Cl)cc2)cc1 (stereo not given)	inactive: -12.1%
CCOC(=O)C(CC)C1=NC(C)(C)Cc2ccccc21.O=[N+]([O-])c1cc([N+](=O)[O-])c(O)c([N+](=O)[O-])c1 (stereo not given)	inactive: -12.2%
CC1=NCCc2c1[nH]c1ccccc21.O=[N+]([O-])c1cc([N+](=O)[O-])c(O)c([N+](=O)[O-])c1	inactive: -11.8%
Cc1ccc(C)c(NP(C)(=O)Oc2ccccc2)c1 (stereo not given)	inactive: -13.8%

Structure (SMILES)	signal enhancement
CP(=O)(Nc1cccc(Br)c1)Oc1ccccc1 (stereo not given)	inactive: -2.77%
Cc1cc(C)cc(OP(C)(=O)Nc2ccccn2)c1 (stereo not given)	inactive: -11.8%
CCOC(=O)c1ccc(NP(C)(=O)Oc2cc(C)cc(C)c2)cc1 (stereo not given)	inactive: -9%
Cc1cc(C)cc(OP(C)(=O)Nc2ccc(C)cc2C)c1 (stereo not given)	inactive: 2.45%
CCN(CC)CCCOC(=O)C(O)(c1ccccc1)c1ccccc1	inactive: -13.2%
COc1ccccc1OP(C)(=O)Nc1ccc(C)cc1 (stereo not given)	inactive: -9.83%
Cc1ccc(NP(C)(=O)Oc2ccccc2)c(C)c1 (stereo not given)	inactive: -1.6%
CCOC(=O)c1ccc(NP(C)(=O)Oc2ccccc2)cc1 (stereo not given)	inactive: 4.39%
Cc1cc(C)cc(OP(C)(N)=O)c1 (stereo not given)	inactive: -9.16%
COc1ccccc1OP(C)(=O)Nc1cc(Cl)ccc1C (stereo not given)	inactive: -29.8%
COc1ccc(OP(C)(=O)Nc2cccc(F)c2)cc1 (stereo not given)	inactive: -1.85%
O=[N+]([O-])c1ccc2c(c1)C=Nc1ccccc1O2	inactive: -5.19%
CC(C)(C)c1ccc(OP(C)(=O)Nc2ccc(SC(F)(F)F)cc2)cc1 (stereo not given)	inactive: -0.15%
Cc1cccc(C)c1OP(C)(N)=O (stereo not given)	inactive: 6.21%
CP(=S)(Nn1cnnc1)Oc1ccccc1 (stereo not given)	inactive: 4.34%
CP(=O)(Nc1ccccc1Br)Oc1ccccc1 (stereo not given)	inactive: -17.7%
COc1ccccc1OP(C)(=O)Nc1ccccc1 (stereo not given)	inactive: -4.25%
CCOC(=O)c1ccc(NP(C)(=O)Oc2ccc(OC)cc2)cc1 (stereo not given)	inactive: -12.2%
CCOP(C)(=S)SCC(=O)NC(C)C(=O)O (stereo not given)	inactive: -2.49%
CP(=O)(Nc1ccccn1)Oc1ccc(Cl)cc1 (stereo not given)	inactive: -9.84%
Cc1cccc(C)c1OP(C)(=O)Nc1ccc(SC(F)(F)F)cc1 (stereo not given)	inactive: -7.99%
CP(=O)(Nc1ccc(SC(F)(F)F)cc1)Oc1ccc(Cl)cc1 (stereo not given)	inactive: -12.1%
CP(=O)(Oc1ccccc1)OC(c1ccccc1)C(F)(F)F (stereo not given)	inactive: 1.42%
CCc1ccc(OP(C)(=O)N2CCN(c3ccc([N+](=O)[O-])cc3)CC2)cc1 (stereo not given)	inactive: -9.53%
CP(=O)(NC(=O)Nc1ccccc1)Oc1ccccc1 (stereo not given)	inactive: -12.8%
Cc1cc(C)cc(OP(C)(=O)Nc2ccc(SC(F)(F)F)cc2)c1 (stereo not given)	inactive: 4.54%
